Experimental findings from ChEMBL document CHEMBL4396869, “Design and Synthesis of Selective Phosphodiesterase 4D (PDE4D) Allosteric Inhibitors for the Treatment of Fragile X Syndrome and Other Brain Disorders” (J Med Chem, 2019) are described below.

Assay [1] is filed under the species Homo sapiens. Description: Selectivity ratio of IC50 for recombinant human His6-tagged PDE4B1 UCR1 S133D mutant expressed in baculovirus infected Sf9 insect cells to IC50 for recombinant human His6-tagged PDE4D7 UCR1 S129D mutant expressed in baculovirus infected Sf9 insect cells.
The species entered for assay [2] is Homo sapiens. Put plainly: Selectivity ratio of IC50 for recombinant human wild-type His6-tagged PDE4D7 UCR1 domain (S129 residues) expressed in baculovirus infected Sf9 insect cells to IC50 for recombinant human His6-tagged PDE4D7 UCR1 S129D mutant expressed in baculovirus infected Sf9 insect cells.

As for `CCc1cc(Oc2ccc(CC(N)=O)cc2)nc(-c2cccc(Cl)c2)n1`, the values for the Ratio IC50 in the assay filed under Homo sapiens [1] and in the assay filed under Homo sapiens [2] were 27 and 69, respectively. For the compound `CN(C)C(=O)Cc1ccc(Nc2cc(-c3cccc(Cl)c3)nc3c2CCC3)cc1`, the results for the Ratio IC50 in the assay filed under Homo sapiens [1] and in the assay filed under Homo sapiens [2] were 7 and 18, respectively. In the case of `CCc1nc(Nc2ccc(CCCO)cc2)nc(-c2cccc(Cl)c2)n1`, the Ratio IC50 in the assay listed under Homo sapiens [1] is 55; in the assay listed under Homo sapiens [2], 135. Take `CCc1cc(Oc2ccc(CCO)cc2)nc(-c2cccc(Cl)c2)n1`: the Ratio IC50 came out at 32 in the assay listed under Homo sapiens [1] and 139 in the assay listed under Homo sapiens [2].

For the compound `OCCc1cccc(Nc2cc(-c3cccc(Cl)c3)nc3c2CCC3)c1`, the Ratio IC50 in the assay listed under Homo sapiens [1] was 6; in the assay filed under Homo sapiens [2], 28.

With `CCc1cc(Cc2ccc(CCO)cc2)nc(-c2cccc(Cl)c2)n1`, the Ratio IC50 in the assay listed under Homo sapiens [1] is 292; in the assay listed under Homo sapiens [2], 267.

As to `NC(=O)Cc1ccc(Cc2cc(-c3cccc(Cl)c3)nc3c2CCC3)cc1`, the Ratio IC50 in the assay filed under Homo sapiens [1] was 16; in the assay filed under Homo sapiens [2] it was 94. Take `NC(=O)Cc1ccc(S(=O)(=O)c2cc(-c3cccc(Cl)c3)nc3c2CCC3)cc1`: in the assay filed under Homo sapiens [1], the Ratio IC50 is 8. `CNC(=O)Cc1ccc(Nc2cc(-c3cccc(Cl)c3)nc3c2CCC3)cc1`: the Ratio IC50 in the assay filed under Homo sapiens [1] was found to be 1; in the assay filed under Homo sapiens [2] it was 15. Turning to `NC(=O)CCc1ccc(Nc2cc(-c3cccc(Cl)c3)nc3c2CCC3)cc1`, the Ratio IC50 in the assay filed under Homo sapiens [1] was determined as 5; in the assay filed under Homo sapiens [2] it was 37. Taken in the same sequence, the figures for `CCc1nc(Nc2ccc(CO)cc2)nc(-c2cccc(Cl)c2)n1` were 9 and 30. Consider `CN(c1ccc(CC(N)=O)cc1)c1cc(-c2cccc(Cl)c2)nc2c1CCC2`, for which the Ratio IC50 in the assay filed under Homo sapiens [1] is 4. As for `CCc1cc(Nc2ccc(CCO)cc2)nc(-c2cccc(Cl)c2)n1`, the Ratio IC50 is 52 in the assay listed under Homo sapiens [1] and 135 in the assay filed under Homo sapiens [2].
